Results published in patent publication US9018162B2, “Methods for rapidly treating severe hypoglycemia” (Xeris Pharmaceuticals, Inc., priority 2013, dated 2015).

Experiment: Effect of pH on pramlintide solubility in DMSO (visual, A630)
Type: physicochemical
Procedure: Pramlintide acetate was dissolved in H2O at 2 mg/mL with either a 10 mM citrate buffer, pH 4 or 10 mM phosphate buffer, pH 7. These solutions were lyophilized to dryness ([…]) using a conservative cycle and reconstituted to various nominal concentrations in DMSO. Solubility was measured by visual inspection for clarity and turbidity via A630.

Compound: CC[C@H](C)[C@H](NC(=O)[C@@H]1CCCN1C(=O)CNC(=O)[C@H](Cc1ccccc1)NC(=O)[C@H](CC(N)=O)NC(=O)[C@H](CC(N)=O)NC(=O)[C@H](CO)NC(=O)[C@H](CO)NC(=O)[C@H](Cc1c[nH]cn1)NC(=O)[C@@H](NC(=O)[C@H](CC(C)C)NC(=O)[C@H](Cc1ccccc1)NC(=O)[C@H](CC(N)=O)NC(=O)[C@H](C)NC(=O)[C@H](CC(C)C)NC(=O)[C@H](CCCNC(=N)N)NC(=O)[C@H](CCC(N)=O)NC(=O)[C@@H](NC(=O)[C@H](C)NC(=O)[C@@H]1CSSC[C@H](NC(=O)[C@@H](N)CCCCN)C(=O)N[C@@H](CC(N)=O)C(=O)N[C@@H]([C@@H](C)O)C(=O)N[C@@H](C)C(=O)N[C@@H]([C@@H](C)O)C(=O)N1)[C@@H](C)O)C(C)C)C(=O)N[C@@H](CC(C)C)C(=O)N1CCC[C@H]1C(=O)N1CCC[C@H]1C(=O)N[C@H](C(=O)N[C@@H](CC(N)=O)C(=O)N[C@H](C(=O)NCC(=O)N[C@@H](CO)C(=O)N[C@@H](CC(N)=O)C(=O)N[C@H](C(=O)N[C@@H](Cc1ccc(O)cc1)C(N)=O)[C@@H](C)O)C(C)C)[C@@H](C)O [pramlintide]
- solubility in DMSO (pH memory of 4, low concentration): soluble
- solubility in DMSO (pH memory of 7): At no concentration
